These results are taken from patent US7901894B2, “Kinase inhibitors” (The Research Foundation of State University of New York, priority 1999, dated 2011).

The target of the test is pp60^c-src (Homo sapiens, UniProt P12931). The test can be described thus: src Cellular Mimetic assay (RR-SRC phosphorylation).

Turning to `N#C/C(=C\c1ccc(O)c(O)c1)C(N)=S` [Tyrophostin A47, Tyrphostin A47, reference compound], the “% Inhibition at 100 μM (std. dev.)” value was 43 (+/−3) %.
